According to US5906920A, “Methods for the detection of ligands for retinoid X receptors” (The Salk Institute for Biological Studies, priority 1995, dated 1999):

What was measured:
[1] = tested on: RXR-M454A/L455A interaction with TBP-V237G; test: Yeast two-hybrid assay, RXR τc mutant M454A/L455A with TBP mutant V237G (beta-galactosidase); type: cell-based, human; conditions: strain Y190, 16 hours, presence vs absence of 1 μM 9-cis retinoic acid
Text: Point mutations were introduced into the appropriate oligonucleotides.
The finding that a single point mutation in TBP could disrupt the interaction with the wildtype RXR ligand binding domain prompted an examination of the ability of TBP-V237G to interact with the RXR .tau.c mutants. […] Point mutants consist of amino acids 197-462 of RXR. RXR197-443 represents the .tau.c truncation. Note the difference in scale between A and B.

[2] = tested on: RXR (human RXRα amino acids 197-462) interaction with conserved carboxy terminal domain of human TBP; conditions: strain Y190, 16 hours, presence or absence of 1 μM 9-cis retinoic acid
[3] = tested on: RXR (human RXRα amino acids 197-462) interaction with full length Drosophila TAF110; conditions: strain Y190, 16 hours, presence or absence of 1 μM 9-cis retinoic acid

## CC1=C(/C=C/C(C)=C\C=C\C(C)=C\C(=O)O)C(C)(C)CCC1 [9-cis retinoic acid]
[1]
  ligand-dependent induction of the interaction between TBP-V237G and RXR-M454A/L455A: ~10 fold
[2]
  interaction between RXR and the conserved carboxy-terminal domain of TBP: specific and ligand-dependent interaction
[3]
  interaction between RXR and TAF110: ligand-dependent interaction
